Measurements taken from article PMC10452409, “Nanodroplet-Based Reagent Delivery into Water-in-Fluorinated-Oil Droplets” (Biosensors, 2023).

Test system: p53 Quenchbody
Details: by comparison to a standard curve measured in bulk condition

average peptide concentration inside the microdroplets (after 3 h incubation with nanodroplets): ~ 28 nM | peptide concentration inside the microdroplets (after a total of 24 h incubation with nanodroplets): 34 nM
SMILES: CC(C)C[C@H](NC(=O)[C@H](CC(=O)O)NC(=O)[C@H](CO)NC(=O)[C@H](Cc1ccccc1)NC(=O)[C@@H](NC(=O)[C@H](CCC(=O)O)NC(=O)[C@H](CCC(N)=O)NC(=O)[C@H](CO)NC(=O)[C@H](CC(C)C)NC(=O)[C@@H]1CCCN1C(=O)[C@@H]1CCCN1C(=O)[C@@H](N)CCC(=O)O)[C@@H](C)O)C(=O)N[C@@H](Cc1c[nH]c2ccccc12)C(=O)N[C@@H](CCCCN)C(=O)N[C@@H](CC(C)C)C(=O)N[C@@H](CC(C)C)C(=O)N1CCC[C@H]1C(=O)N[C@@H](CCC(=O)O)C(=O)N[C@@H](CC(N)=O)C(=O)N[C@@H](CC(N)=O)C(=O)O [human p53 peptide]
